Data reported in ChEMBL document CHEMBL4765236, “Insights into the Antimicrobial Activity and Cytotoxicity of Engineered α-Helical Peptide Amphiphiles” (J Med Chem, 2016).

Key:
[1] = system: Escherichia coli; test: Antibacterial activity against Escherichia coli ATCC 25922 assessed as bacterial growth inhibition incubated for 18 to 24 hrs by microtiter broth dilution method; type: functional; settings: time 18-24 hrs
Summary of the method: (§1)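 Log-phase cells (grown overnight at 37 °C, subcultured in MHB) diluted to 10^5 CFU/mL in MHB and mixed 1:1 with serial peptide dilutions prepared in 0.01% acetic acid/0.2% BSA. Incubated 37 °C for 18-24 h. MIC is the lowest concentration giving no growth by OD492. Reported as the average of 3-5 independent experiments.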

[2] = system: Staphylococcus aureus; test: Antibacterial activity against Staphylococcus aureus ATCC 29213 assessed as bacterial growth inhibition incubated for 18 to 24 hrs by microtiter broth dilution method; type: functional; settings: time 18-24 hrs; summary of the method: as §1
[3] = system: Listeria monocytogenes; test: Antibacterial activity against Listeria monocytogenes CICC 21633 assessed as bacterial growth inhibition incubated for 18 to 24 hrs by microtiter broth dilution method; type: functional; settings: time 18-24 hrs; summary of the method: as §1
[4] = system: Staphylococcus aureus; test: Antibacterial activity against Staphylococcus aureus GIM 1.160 assessed as bacterial growth inhibition incubated for 18 to 24 hrs by microtiter broth dilution method; type: functional; settings: time 18-24 hrs; summary of the method: as §1
[5] = system: Staphylococcus aureus; test: Antibacterial activity against methicillin resistant Staphylococcus aureus ATCC 43300 assessed as bacterial growth inhibition incubated for 18 to 24 hrs by microtiter broth dilution method; type: functional; settings: time 18-24 hrs
Summary of the method: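 Log-phase bacteria grown at 37 °C in MHB, diluted to 10^5 CFU/mL, mixed 1:1 with serial peptide dilutions (peptide diluted in 0.01% acetic acid, 0.2% BSA); 37 °C for 18-24 h. MIC read by OD492 as lowest concentration giving no growth; mean of 3-5 independent experiments.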

[6] = system: Escherichia coli; test: Antibacterial activity against Escherichia coli ATCC 35150 assessed as bacterial growth inhibition incubated for 18 to 24 hrs by microtiter broth dilution method; type: functional; settings: time 18-24 hrs; summary of the method: as §1
[7] = system: Listeria monocytogenes; test: Antibacterial activity against Listeria monocytogenes CICC 21662 assessed as bacterial growth inhibition incubated for 18 to 24 hrs by microtiter broth dilution method; type: functional; settings: time 18-24 hrs; summary of the method: as §1
[8] = system: Salmonella typhimurium; test: Antibacterial activity against Salmonella typhimurium CMCC 51005 assessed as bacterial growth inhibition incubated for 18 to 24 hrs by microtiter broth dilution method; type: functional, Salmonella enterica subsp. enterica serovar Typhimurium; settings: Salmonella enterica, time 18-24 hrs; summary of the method: as §1

CC[C@H](C)[C@H](NC(=O)CN)C(=O)NCC(=O)N[C@@H](C)C(=O)N[C@H](C(=O)N[C@@H](CC(C)C)C(=O)N[C@@H](CCCCN)C(=O)N[C@H](C(=O)N[C@@H](CC(C)C)C(=O)N[C@H](C(=O)N[C@H](C(=O)NCC(=O)N[C@@H](CC(C)C)C(=O)N1CCC[C@H]1C(=O)N[C@@H](C)C(=O)N[C@@H](CC(C)C)C(=O)N[C@H](C(=O)N[C@@H](CO)C(=O)N[C@@H](Cc1c[nH]c2ccccc12)C(=O)N[C@H](C(=O)N[C@@H](CCCCN)C(=O)N[C@@H](CCCNC(=N)N)C(=O)N[C@@H](CCCCN)C(=O)N[C@@H](CCCNC(=N)N)C(=O)N[C@@H](CCC(N)=O)C(=O)N[C@@H](CCC(N)=O)C(N)=O)[C@@H](C)CC)[C@@H](C)CC)[C@@H](C)O)[C@@H](C)O)C(C)C)C(C)C [MELITTIN]
MIC [1]: 0.35 µM (≈ 0.996 µg/mL)
MIC [2]: 1.41 µM (≈ 4.01 µg/mL)
MIC [3]: 0.35 µM (≈ 0.996 µg/mL)
MIC [4]: 2.81 µM (≈ 8 µg/mL)
MIC [5]: 1.41 µM (≈ 4.01 µg/mL)
MIC [6]: 1.41 µM (≈ 4.01 µg/mL)
MIC [7]: 0.18 µM (≈ 0.512 µg/mL)
MIC [8]: 2.81 µM (≈ 8 µg/mL)

In brackets after ≈: the same amount, converted by molar mass.
